# Assay results as given in PubChem BioAssay AID504333 (National Center for Advancing Translational Sciences (NCATS), 2011).
# Protein sequences, listed by entry. Tags and fused reporters are not part of them.
# UniProt Q9UIF8, whole entry: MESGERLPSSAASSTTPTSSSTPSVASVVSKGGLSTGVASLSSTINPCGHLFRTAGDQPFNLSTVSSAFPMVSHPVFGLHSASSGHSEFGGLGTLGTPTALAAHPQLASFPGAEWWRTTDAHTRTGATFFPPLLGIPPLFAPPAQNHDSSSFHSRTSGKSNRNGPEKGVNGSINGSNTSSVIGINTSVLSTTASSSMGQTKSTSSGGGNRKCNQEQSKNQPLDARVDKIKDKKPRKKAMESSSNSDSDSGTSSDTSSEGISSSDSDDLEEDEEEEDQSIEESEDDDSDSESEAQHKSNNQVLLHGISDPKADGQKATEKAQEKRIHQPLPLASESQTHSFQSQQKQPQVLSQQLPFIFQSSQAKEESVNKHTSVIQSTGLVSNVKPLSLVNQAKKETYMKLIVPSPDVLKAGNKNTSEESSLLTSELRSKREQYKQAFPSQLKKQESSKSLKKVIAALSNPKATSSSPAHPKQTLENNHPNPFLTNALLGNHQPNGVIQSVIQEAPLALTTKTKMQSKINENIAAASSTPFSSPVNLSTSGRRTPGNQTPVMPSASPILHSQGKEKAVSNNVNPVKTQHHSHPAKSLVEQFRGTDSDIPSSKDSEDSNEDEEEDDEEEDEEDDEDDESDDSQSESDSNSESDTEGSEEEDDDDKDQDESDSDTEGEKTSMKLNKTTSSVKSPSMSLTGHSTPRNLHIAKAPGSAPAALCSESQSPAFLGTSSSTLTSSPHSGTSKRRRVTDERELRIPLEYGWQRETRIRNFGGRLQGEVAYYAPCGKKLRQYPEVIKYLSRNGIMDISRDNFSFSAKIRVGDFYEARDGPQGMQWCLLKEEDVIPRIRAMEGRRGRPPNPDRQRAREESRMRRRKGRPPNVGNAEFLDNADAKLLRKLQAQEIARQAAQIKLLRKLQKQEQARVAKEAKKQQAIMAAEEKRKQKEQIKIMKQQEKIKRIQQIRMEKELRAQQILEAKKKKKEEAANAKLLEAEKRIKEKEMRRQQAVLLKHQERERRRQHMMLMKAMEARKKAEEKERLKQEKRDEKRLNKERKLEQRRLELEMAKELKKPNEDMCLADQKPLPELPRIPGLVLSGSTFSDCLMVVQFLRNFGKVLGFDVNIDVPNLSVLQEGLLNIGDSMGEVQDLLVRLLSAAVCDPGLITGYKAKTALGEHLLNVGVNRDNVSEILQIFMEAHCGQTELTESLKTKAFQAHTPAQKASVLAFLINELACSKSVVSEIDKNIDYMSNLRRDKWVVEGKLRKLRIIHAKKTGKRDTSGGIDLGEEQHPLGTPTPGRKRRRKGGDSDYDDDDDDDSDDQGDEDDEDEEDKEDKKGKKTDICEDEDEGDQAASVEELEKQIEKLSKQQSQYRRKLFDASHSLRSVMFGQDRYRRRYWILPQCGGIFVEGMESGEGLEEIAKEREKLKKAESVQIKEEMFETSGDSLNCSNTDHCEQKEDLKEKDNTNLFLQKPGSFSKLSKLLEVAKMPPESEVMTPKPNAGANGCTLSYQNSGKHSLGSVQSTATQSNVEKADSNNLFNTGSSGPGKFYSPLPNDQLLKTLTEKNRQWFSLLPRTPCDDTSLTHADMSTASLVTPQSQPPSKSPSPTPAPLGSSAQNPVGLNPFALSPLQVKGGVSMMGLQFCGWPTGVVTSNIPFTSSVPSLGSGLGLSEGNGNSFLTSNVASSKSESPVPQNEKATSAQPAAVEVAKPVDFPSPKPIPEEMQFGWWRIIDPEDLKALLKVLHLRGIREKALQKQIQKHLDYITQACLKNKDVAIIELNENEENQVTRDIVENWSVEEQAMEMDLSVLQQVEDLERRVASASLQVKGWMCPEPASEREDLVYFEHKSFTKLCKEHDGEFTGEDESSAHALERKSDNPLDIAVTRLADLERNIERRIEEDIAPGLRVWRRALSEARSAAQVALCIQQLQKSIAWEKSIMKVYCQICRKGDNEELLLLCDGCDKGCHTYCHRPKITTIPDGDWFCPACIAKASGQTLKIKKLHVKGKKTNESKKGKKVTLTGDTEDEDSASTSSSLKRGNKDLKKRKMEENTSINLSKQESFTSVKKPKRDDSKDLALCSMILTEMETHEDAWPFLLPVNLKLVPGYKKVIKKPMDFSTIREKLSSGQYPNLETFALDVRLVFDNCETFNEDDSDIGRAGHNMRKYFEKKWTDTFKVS
# Only a part is listed here, and it is no random draw. Results filed as inconclusive are left out. Activity calls are given as the source filed them. Calls come from the whole dose curve; as a rule, active = well fitted inhibition curve with a large enough effect; inconclusive = small, poorly fitted or top-dose-only effect; inactive = no such curve, though single readings can be large or run the other way.
# Molecular target: Bromodomain adjacent to zinc finger domain protein 2B (Homo sapiens) (UniProt Q9UIF8)
# Assay: qHTS Assay for Inhibitors of BAZ2B; note: nearly all actives have a fitted effect of over 60% in size
# Conditions: AlphaScreen BAZ2B-H3K14Ac peptide displacement; series mostly up to 114 µM; activity change, negative = inhibition: at the top concentration
# % is set by controls: 0 for no effect and ±100 for the full control effect; potency is the fitted concentration of half-maximal effect.
Compound,"activity change, negative = inhibition",Potency
CCOP(C)(=S)SCC(=O)NC(C)(CC)C(=O)O (configuration not stated),inactive: -5.92%,
CP(=O)(Nc1ccc(SC(F)(F)F)cc1)Oc1ccc(F)cc1 (configuration not stated),inactive: 4.61%,
Cc1ccccc1NP(C)(=O)Nc1ccccc1C,inactive: -3.42%,
CP(=O)(Nc1ccc2c(c1)OCCO2)Oc1ccccc1 (configuration not stated),inactive: -6.21%,
CC1=C2N=C(C=C3N=C(C(C)=C4[N-][C@@](C)([C@@H]5N=C1[C@](C)(CCC(=O)NC[C@@H](C)OP(=O)([O-])O[C@H]1[C@@H](O)[C@@H](n6cnc7cc(C)c(C)cc76)O[C@@H]1CO)[C@H]5CC(N)=O)[C@@](C)(CC(N)=O)[C@@H]4CCC(N)=O)[C@@](C)(CC(N)=O)[C@@H]3CCC(N)=O)C(C)(C)[C@@H]2CCC(N)=O.[C-]#N.[Co+3],,active: 39.8 µM
CP(=O)(Nc1ccc(SC(F)(F)F)cc1)Oc1ccccc1 (configuration not stated),inactive: 7.09%,
CCCOc1ccc(NP(C)(=O)Oc2ccc(Cl)cc2)cc1 (configuration not stated),inactive: -24.8%,
COc1ccccc1OP(C)(=O)Nc1c(C)cccc1C (configuration not stated),inactive: 5.99%,
CN1CCCCC1COC(=O)C1(O)c2ccccc2CCc2ccccc21 (configuration not stated),inactive: -2.53%,
CCOC(=O)c1ccc(NP(C)(=O)Oc2cc(C)cc(C)c2)cc1 (configuration not stated),inactive: 8.91%,
Cc1cc(C)cc(OP(C)(=O)Nc2ccc(C)cc2C)c1 (configuration not stated),inactive: 8.15%,
COc1ccccc1OP(C)(=O)Nc1cccc(Br)c1 (configuration not stated),inactive: 3.18%,
Cc1ccc(C)c(NP(C)(=O)Oc2ccccc2)c1 (configuration not stated),inactive: 9.91%,
CP(=O)(Nc1cccc(Br)c1)Oc1ccccc1 (configuration not stated),inactive: -25.8%,
Cc1cc(C)cc(OP(C)(=O)Nc2ccccn2)c1 (configuration not stated),inactive: 6.49%,
CCN(CC)CCCOC(=O)C(O)(c1ccccc1)c1ccccc1,inactive: -4.44%,
O=[N+]([O-])c1ccc2c(c1)C=Nc1ccccc1O2,,active: 35.5 µM
Cc1cccc(C)c1OP(C)(N)=O (configuration not stated),inactive: -0.0303%,
CC(C)(C)c1ccc(OP(C)(=O)Nc2ccc(SC(F)(F)F)cc2)cc1 (configuration not stated),inactive: 13.8%,

Compound,"activity change, negative = inhibition",Potency
Cc1cc(C)cc(OP(C)(N)=O)c1 (configuration not stated),inactive: -33.9%,
COc1ccc(OP(C)(=O)Nc2cccc(F)c2)cc1 (configuration not stated),inactive: -3.37%,
COc1ccccc1OP(C)(=O)Nc1cc(Cl)ccc1C (configuration not stated),inactive: -1.3%,
Cc1ccc(NP(C)(=O)Oc2ccccc2)c(C)c1 (configuration not stated),inactive: -0.737%,
COc1ccccc1OP(C)(=O)Nc1ccc(C)cc1 (configuration not stated),inactive: 1.89%,
CCOC(=O)c1ccc(NP(C)(=O)Oc2ccccc2)cc1 (configuration not stated),inactive: 3.84%,
CP(=O)(Nc1ccccc1Br)Oc1ccccc1 (configuration not stated),inactive: 0.877%,
COc1ccccc1OP(C)(=O)Nc1ccccc1 (configuration not stated),inactive: 2.16%,
CP(=S)(Nn1cnnc1)Oc1ccccc1 (configuration not stated),inactive: 6.91%,
Cc1cc(C)cc(OP(C)(=O)Nc2ccc(SC(F)(F)F)cc2)c1 (configuration not stated),inactive: 4.21%,
CCc1ccc(OP(C)(=O)N2CCN(c3ccc([N+](=O)[O-])cc3)CC2)cc1 (configuration not stated),inactive: -23.5%,
CP(=O)(NC(=O)Nc1ccccc1)Oc1ccccc1 (configuration not stated),inactive: 11%,
CP(=O)(Oc1ccccc1)OC(c1ccccc1)C(F)(F)F (configuration not stated),inactive: 1.19%,
Cc1cccc(C)c1OP(C)(=O)Nc1ccc(SC(F)(F)F)cc1 (configuration not stated),inactive: -1.59%,
CP(=O)(Nc1ccc(SC(F)(F)F)cc1)Oc1ccc(Cl)cc1 (configuration not stated),inactive: 1.4%,
CP(=O)(Nc1ccccn1)Oc1ccc(Cl)cc1 (configuration not stated),inactive: -20.2%,
CCOC(=O)c1ccc(NP(C)(=O)Oc2ccc(OC)cc2)cc1 (configuration not stated),inactive: 5.24%,
CCOP(C)(=S)SCC(=O)NC(C)C(=O)O (configuration not stated),inactive: -0.754%,
